Values quoted from earlier work in paper PMC3720659, “Integrated Analysis of Drug-Induced Gene Expression Profiles Predicts Novel hERG Inhibitors” (PLoS ONE, 2013).

Test system: hERG current
Conditions: cited from earlier work; call rule not given here

Row | Substance | Annotation (hERG Active / Inactive)
1 | haloperidol | Active
2 | nimodipine | Inactive
